Results: ChEMBL document CHEMBL1152692, “Synthesis and evaluation of ligands for D2-like receptors: the role of common pharmacophoric groups” (Bioorg Med Chem, 2009)

Chains of the proteins cited; added tags and fusions are not shown.
UniProt P21917, whole entry: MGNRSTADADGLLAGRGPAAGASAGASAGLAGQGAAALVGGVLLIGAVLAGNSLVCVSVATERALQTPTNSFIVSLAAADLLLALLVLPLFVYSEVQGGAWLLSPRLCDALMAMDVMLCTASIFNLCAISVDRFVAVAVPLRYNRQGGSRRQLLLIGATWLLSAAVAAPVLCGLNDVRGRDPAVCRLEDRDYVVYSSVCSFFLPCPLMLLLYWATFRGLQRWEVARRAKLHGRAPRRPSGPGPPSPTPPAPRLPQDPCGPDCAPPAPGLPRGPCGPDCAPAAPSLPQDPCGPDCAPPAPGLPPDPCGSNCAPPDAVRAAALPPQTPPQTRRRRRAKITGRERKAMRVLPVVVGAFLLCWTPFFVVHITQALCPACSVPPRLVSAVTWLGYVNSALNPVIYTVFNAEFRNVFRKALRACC
UniProt P35462, whole entry: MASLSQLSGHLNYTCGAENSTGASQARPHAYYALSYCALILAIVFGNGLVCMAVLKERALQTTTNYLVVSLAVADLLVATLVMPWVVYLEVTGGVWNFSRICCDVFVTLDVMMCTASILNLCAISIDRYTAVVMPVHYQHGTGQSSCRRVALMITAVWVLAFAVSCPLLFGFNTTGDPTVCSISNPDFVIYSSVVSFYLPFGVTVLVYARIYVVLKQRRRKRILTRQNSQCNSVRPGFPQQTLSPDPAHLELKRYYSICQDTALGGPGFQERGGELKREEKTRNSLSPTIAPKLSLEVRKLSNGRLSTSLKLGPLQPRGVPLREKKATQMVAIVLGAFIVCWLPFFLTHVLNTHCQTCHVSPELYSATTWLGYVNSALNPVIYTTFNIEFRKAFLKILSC

Experiments:
[1] = molecular target: D(4) dopamine receptor (Homo sapiens, UniProt P21917)
[2] = molecular target: D(3) dopamine receptor (Homo sapiens, UniProt P35462)

Ki [1]: 11 nM | Ki [2]: 200 nM
SMILES: O=C(CCCN1CCC(O)(c2ccc(Cl)cc2)C1)c1ccc(F)cc1 (configuration not stated)
